Earlier results as cited in US12303497B2, “Anti-androgens for the treatment of metastatic castration-sensitive prostate cancer” (priority 2019, dated 2025).

System: prostate cancer cells rendered castration resistant via overexpression of AR
Details: literature; cited from earlier work

## CNC(=O)c1ccc(N2C(=S)N(c3cnc(C#N)c(C(F)(F)F)c3)C(=O)C23CCC3)cc1F [Apalutamide, 4-[7-(6-cyano-5-trifluoromethylpyridin-3-yl)-8-oxo-6-thioxo-5,7-diazaspiro[3.4]oct-5-yl]-2-fluoro-N-methylbenzamide]
  Agonist activity in the context of AR overexpression: lacks the partial agonist activity
